From patent US12491253B2, “Bicyclic peptide ligands specific for MT1-MMP” (BicycleRD Limited, priority 2018, dated 2025)

Each substance was assayed against MT1-MMP Hemopexin domain (PEX) (Homo sapiens, UniProt P50281) (assay: Human Fluorescence Polarisation Competition Binding Assay). Conditions: Human MT1-MMP FP competition binding; tracer 17-88-N006 at 1 nM; molecular scaffold TBMB.
Excerpt: Due to its high affinity to the MT1-MMP Hemopexin domain (PEX), the fluoresceinated derivative of 17-88-N006 (SEQ ID NO: 28) can be used for competition experiments (using FP for detection). Here, a preformed complex of PEX with the fluorescent PEX-binding tracer (in all experiments-ACPYSWETCLFGDYRCA[Sar]6[KFI] (17-88-N006) (SEQ ID NO: 28)) is titrated with free, non-fluoresceinated bicyclic peptide. Since all 17-69-based peptides are expected to bind at the same site, the titrant will displace the fluorescent tracer from PEX. Dissociation of the complex can be measured quantitatively, and the Kd of the competitor (titrant) to the target protein determined. The advantage of the competition method is that the affinities of non-fluoresceinated bicyclic peptides can be determined accurately and rapidly. […] Subsequently, the non-fluorescent competitor bicyclic peptide (usually just the bicycle core sequence) is titrated, such that it displaces the fluorescent tracer from the target protein. The displacement of the tracer is measured and associated with a drop in fluorescence polarisation. The drop in fluorescence polarisation is proportional to the fraction of target protein bound with the non-fluorescent titrant, and thus is a measure of the affinity of titrant to target protein.
The raw data is fit to the analytical solution of the cubic equation that describes the equilibria between fluorescent tracer, titrant, and binding protein. The fit requires the value of the affinity of fluorescent tracer to the target protein, which can be determined separately by direct binding FP experiments (see next section). The curve fitting was performed using Sigmaplot 12.0 and used as an adapted version of the equation described by Zhi-Xin Wang (FEBS Letters (1995) 360, 111-114).

Row | Substance | Ki
1 | A-(SEQ ID NO: 3)-A [BCY1029] | 503 nM
2 | A-(SEQ ID NO: 8)-A [BCY1035] | 391 nM
3 | A-(SEQ ID NO: 12)-A [BCY1039] | 177 nM
4 | Ac-(SEQ ID NO: 2) [BCY1027] | 92.7 ± 68.5 nM
5 | [DOTA]-G-[Sar]5-(SEQ ID NO: 2) [BCY1388] | 81.3 ± 32.6 nM
